The entries are a selection whose mix differs from that of the whole data set. Active and inactive are the calls of the source.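 How the source made its calls: active means inhibition of 50% or more; inactive means inhibition below 50%.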
Experiment: blockers of yeast NLRP3/ASC/caspase-1 reporter – luminescence, uHTS, primary screen (AID 2825);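 further: plate controls were induced DMSO wells for no effect and uninduced yeast grown without galactose for full effect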
Details: Yeast reconstituted NLRP3/ASC/caspase-1, beta-gal luminescence, 24 h; at 10 µM; stronger effect = higher value
For `Cc1cc(C)cc(OP(C)(=O)Nc2ccc(SC(F)(F)F)cc2)c1` (centres undefined), the inhibition was inactive: -1.89%. In the case of `Cc1cccc(C)c1OP(C)(=O)Nc1ccc(SC(F)(F)F)cc1` (centres undefined), the inhibition is reported as inactive: -0.731%. With `CP(=O)(Nc1ccc(SC(F)(F)F)cc1)Oc1ccc(Cl)cc1` (centres undefined) the inhibition was inactive: 28.9%. With `CP(=O)(Oc1ccccc1)OC(c1ccccc1)C(F)(F)F` (centres undefined) the inhibition was inactive: 14.7%. In the case of `CP(=O)(Nc1ccccc1Br)Oc1ccccc1` (centres undefined), the inhibition is reported as inactive: -3.15%. With `COc1ccccc1OP(C)(=O)Nc1ccccc1` (centres undefined) the inhibition was inactive: 6.92%. For `CP(=S)(Nn1cnnc1)Oc1ccccc1` (centres undefined), the inhibition was inactive: 4.21%. With `CP(=O)(Nc1ccc(SC(F)(F)F)cc1)Oc1ccccc1` (centres undefined) the inhibition was inactive: 2.75%. In the case of `CCCOc1ccc(NP(C)(=O)Oc2ccc(Cl)cc2)cc1` (centres undefined), the inhibition is reported as inactive: 24.4%. With `COc1ccccc1OP(C)(=O)Nc1c(C)cccc1C` (centres undefined) the inhibition was inactive: 7.85%. In the case of `CN1CCCCC1COC(=O)C1(O)c2ccccc2CCc2ccccc21` (centres undefined), the inhibition is reported as inactive: -6.64%. With `O=[N+]([O-])c1cc([N+](=O)[O-])c(Nc2nnnn2CCO)c([N+](=O)[O-])c1` the inhibition was inactive: 15.5%. With `CC1=C2N=C(C=C3N=C(C(C)=C4[N-][C@@](C)([C@@H]5N=C1[C@](C)(CCC(=O)NC[C@@H](C)OP(=O)([O-])O[C@H]1[C@@H](O)[C@@H](n6cnc7cc(C)c(C)cc76)O[C@@H]1CO)[C@H]5CC(N)=O)[C@@](C)(CC(N)=O)[C@@H]4CCC(N)=O)[C@@](C)(CC(N)=O)[C@@H]3CCC(N)=O)C(C)(C)[C@@H]2CCC(N)=O.[C-]#N.[Co+3]` the inhibition was inactive: 27%. For `CCOC(=O)C(CC)C1=NC(C)(C)Cc2ccccc21.O=[N+]([O-])c1cc([N+](=O)[O-])c(O)c([N+](=O)[O-])c1` (centres undefined), the inhibition was inactive: 6.63%. For `Cc1nc2ccc3ccccc3c2s1.O=[N+]([O-])c1cc([N+](=O)[O-])c(O)c([N+](=O)[O-])c1`, the inhibition was inactive: 6.44%. In the case of `O=[N+]([O-])c1cc([N+](=O)[O-])c(-c2cnn(-c3ccccc3)c2)c([N+](=O)[O-])c1`, the inhibition is reported as inactive: 12.8%. For `O=[N+]([O-])c1cc([N+](=O)[O-])c(-n2nnc3ccccc32)c([N+](=O)[O-])c1`, the inhibition was inactive: 5.83%. In the case of `Cc1ccc(C)c(NP(C)(=O)Oc2ccccc2)c1` (centres undefined), the inhibition is reported as inactive: -4.27%. With `CP(=O)(Nc1cccc(Br)c1)Oc1ccccc1` (centres undefined) the inhibition was inactive: 26%. In the case of `Cc1cc(C)cc(OP(C)(=O)Nc2ccccn2)c1` (centres undefined), the inhibition is reported as inactive: 12%. For `CCOC(=O)c1ccc(NP(C)(=O)Oc2cc(C)cc(C)c2)cc1` (centres undefined), the inhibition was inactive: 10.5%. With `Cc1cc(C)cc(OP(C)(=O)Nc2ccc(C)cc2C)c1` (centres undefined) the inhibition was inactive: 21.6%. For `COc1ccccc1OP(C)(=O)Nc1cccc(Br)c1` (centres undefined), the inhibition was inactive: 8.18%. In the case of `O=C(O)c1cccc(Nc2c([N+](=O)[O-])cc([N+](=O)[O-])cc2[N+](=O)[O-])c1`, the inhibition is reported as inactive: 24.7%.

Source: PubChem BioAssay AID2825 (Sanford-Burnham Center for Chemical Genomics, 2010)
